# Laboratory results as given in paper PMC3479967, “Drug-Drug Interactions Potential of Icariin and Its Intestinal Metabolites via Inhibition of Intestinal UDP-Glucuronosyltransferases” (Evidence-based Complementary and Alternative Medicine : eCAM, 2012).
# Target: T1, UGT1A3 (Homo sapiens, UniProt P35503)
# T1 sequence (P35503 29-534): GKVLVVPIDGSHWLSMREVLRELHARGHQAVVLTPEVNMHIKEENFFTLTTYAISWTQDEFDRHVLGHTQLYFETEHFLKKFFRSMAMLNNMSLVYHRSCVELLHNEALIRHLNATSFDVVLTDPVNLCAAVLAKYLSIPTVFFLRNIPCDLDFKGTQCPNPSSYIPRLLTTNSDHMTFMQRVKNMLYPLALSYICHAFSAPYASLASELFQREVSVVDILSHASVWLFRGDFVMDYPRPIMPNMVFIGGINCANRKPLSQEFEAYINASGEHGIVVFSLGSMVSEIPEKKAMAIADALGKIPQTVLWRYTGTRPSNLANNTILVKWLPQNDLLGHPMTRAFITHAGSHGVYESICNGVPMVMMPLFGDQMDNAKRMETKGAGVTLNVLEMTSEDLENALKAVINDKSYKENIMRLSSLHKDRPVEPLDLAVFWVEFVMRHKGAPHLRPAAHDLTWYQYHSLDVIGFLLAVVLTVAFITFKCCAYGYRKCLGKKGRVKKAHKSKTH
# Test: Inhibition of recombinant UGT1A3 activity (4-MU glucuronidation)
# Method: A panel of recombinant human UGT supersomes (UGT1A1, UGT1A3, UGT1A4, UGT1A6, UGT1A7, UGT1A8, UGT1A9, UGT1A10, UGT2B4, UGT2B7, UGT2B15, and UGT2B17) expressed in baculovirus-infected insect cells were purchased from BD Gentest Corp. (Woburn, MA, USA).
# 4-MU, a nonselective substrate of UGTs, was used as probe substrate for all UGTs except UGT1A4. Incubations with each individual enzyme were conducted using conditions previously described. There was a 5 min preincubation step at 37°C before the reaction was started by addition of UDPGA. The incubation mixtures were then centrifuged at 20,500 ×g for 15 min to obtain the supernatant. Aliquots (20 μL) were then analyzed by HPLC. The HPLC system (SHIMADZU, Kyoto, Japan) consisted of an SCL-10A system controller, two LC-10AT pumps, a SIL-10A auto injector, and a SPD-10AVP UV detector. […] The mobile phase consisted of 10 mM KH2PO4, pH 2.7 (A) and acetonitrile (B). […]
# Inhibition data from experiments were graphically represented by Dixon plots. K i values were calculated by nonlinear regression using the equations for competitive inhibition (1), noncompetitive inhibition (2), or mixed inhibition (3), [22] […] The type of inhibition was determined from the enzyme inhibition models. […]
smiles,measurement,value
COc1ccc(-c2oc3c(CC=C(C)C)c(O[C@@H]4O[C@H](CO)[C@@H](O)[C@H](O)[C@H]4O)cc(O)c3c(=O)c2O[C@@H]2O[C@@H](C)[C@H](O)[C@@H](O)[C@H]2O)cc1 [Icariin],Inhibition type against UGT1A3,competitive
